The species named for series [1] is Rattus norvegicus. In kind it is toxicity, organism-based, Sprague-Dawley. The following applies: in vivo, po, tissue Plasma, route oral GAVAGE, […].
The species named for series [2] is Rattus norvegicus. Put plainly: DrugMatrix - Regimen: Daily Repeat. Type of series: toxicity, organism-based, Sprague-Dawley. More on the design: regimen Daily Repeat, gender Male, age 6-8 weeks. To be noted: in vivo, po, tissue Plasma, route oral GAVAGE, […].

This note sets out measurements from ChEMBL document CHEMBL3885881, “DrugMatrix”.

Take `Cc1ccc(C)c(OCCCC(C)(C)C(=O)O)c1` [GEMFIBROZIL]: the ALBUMIN in series [1] (0 mg/kg, 6 h, vehicle control, dose level Control, time 0.25 day) turned out to be 4.67 G/DL; in series [1] (0 mg/kg, 24 h, dose level Control, time 1 day) it was 4.33 G/DL; in series [1] (100 mg/kg, 6 h, dose level Low, time 0.25 day), 4.32 G/DL; in series [1] (100 mg/kg, 24 h, dose level Low, time 1 day) it was 4.52 G/DL; in series [1] (700 mg/kg, 6 h, dose level High, time 0.25 day), 4.52 G/DL; in series [1] (700 mg/kg, 24 h, dose level High, time 1 day), 4.63 G/DL. For the same molecule, the ALBUMIN in series [2] (0 mg/kg, 72 h, dose level Control, time 3 day) is 4.12 G/DL; in series [2] (0 mg/kg, dose level Control, time 7 day) it was 4.3 G/DL; in series [2] (100 mg/kg, 72 h, dose level Low, time 3 day), 4.37 G/DL; in series [2] (100 mg/kg, dose level Low, time 7 day) it was 4.63 G/DL; in series [2] (700 mg/kg, 72 h, dose level High, time 3 day), 4.38 G/DL; in series [2] (700 mg/kg, dose level High, time 7 day), 4.77 G/DL.
